Article PMC11176561 (Computational and Structural Biotechnology Journal, 2024)

Tested on: ceftazidime-resistant E. coli E24
Assay: E. coli-induced mouse bacteremia
Settings: ELISA, 8 h; TS-CATH 2.5, 5, 10 mg/kg or ceftazidime 5 mg/kg; compared with model

CC(C)(O/N=C(\C(=O)N[C@@H]1C(=O)N2C(C(=O)[O-])=C(C[n+]3ccccc3)CS[C@H]12)c1csc(N)n1)C(=O)O [Ceftazidime]
E. coli-induced secretion levels of TNF-α, IL-1β, and IL-6 in the serum: little effect
